Test results taken from US20250114345A1, “COMPOUNDS AND COMPOSITIONS AS CBP/P300 DEGRADERS AND USES THEREOF” (Oncopia Therapeutics, Inc. d/b/a/ SK Life Science Labs, priority 2023, published 2025).

The chains behind the UniProt entries cited, without tags or fusion partners.
UniProt Q09472, whole entry: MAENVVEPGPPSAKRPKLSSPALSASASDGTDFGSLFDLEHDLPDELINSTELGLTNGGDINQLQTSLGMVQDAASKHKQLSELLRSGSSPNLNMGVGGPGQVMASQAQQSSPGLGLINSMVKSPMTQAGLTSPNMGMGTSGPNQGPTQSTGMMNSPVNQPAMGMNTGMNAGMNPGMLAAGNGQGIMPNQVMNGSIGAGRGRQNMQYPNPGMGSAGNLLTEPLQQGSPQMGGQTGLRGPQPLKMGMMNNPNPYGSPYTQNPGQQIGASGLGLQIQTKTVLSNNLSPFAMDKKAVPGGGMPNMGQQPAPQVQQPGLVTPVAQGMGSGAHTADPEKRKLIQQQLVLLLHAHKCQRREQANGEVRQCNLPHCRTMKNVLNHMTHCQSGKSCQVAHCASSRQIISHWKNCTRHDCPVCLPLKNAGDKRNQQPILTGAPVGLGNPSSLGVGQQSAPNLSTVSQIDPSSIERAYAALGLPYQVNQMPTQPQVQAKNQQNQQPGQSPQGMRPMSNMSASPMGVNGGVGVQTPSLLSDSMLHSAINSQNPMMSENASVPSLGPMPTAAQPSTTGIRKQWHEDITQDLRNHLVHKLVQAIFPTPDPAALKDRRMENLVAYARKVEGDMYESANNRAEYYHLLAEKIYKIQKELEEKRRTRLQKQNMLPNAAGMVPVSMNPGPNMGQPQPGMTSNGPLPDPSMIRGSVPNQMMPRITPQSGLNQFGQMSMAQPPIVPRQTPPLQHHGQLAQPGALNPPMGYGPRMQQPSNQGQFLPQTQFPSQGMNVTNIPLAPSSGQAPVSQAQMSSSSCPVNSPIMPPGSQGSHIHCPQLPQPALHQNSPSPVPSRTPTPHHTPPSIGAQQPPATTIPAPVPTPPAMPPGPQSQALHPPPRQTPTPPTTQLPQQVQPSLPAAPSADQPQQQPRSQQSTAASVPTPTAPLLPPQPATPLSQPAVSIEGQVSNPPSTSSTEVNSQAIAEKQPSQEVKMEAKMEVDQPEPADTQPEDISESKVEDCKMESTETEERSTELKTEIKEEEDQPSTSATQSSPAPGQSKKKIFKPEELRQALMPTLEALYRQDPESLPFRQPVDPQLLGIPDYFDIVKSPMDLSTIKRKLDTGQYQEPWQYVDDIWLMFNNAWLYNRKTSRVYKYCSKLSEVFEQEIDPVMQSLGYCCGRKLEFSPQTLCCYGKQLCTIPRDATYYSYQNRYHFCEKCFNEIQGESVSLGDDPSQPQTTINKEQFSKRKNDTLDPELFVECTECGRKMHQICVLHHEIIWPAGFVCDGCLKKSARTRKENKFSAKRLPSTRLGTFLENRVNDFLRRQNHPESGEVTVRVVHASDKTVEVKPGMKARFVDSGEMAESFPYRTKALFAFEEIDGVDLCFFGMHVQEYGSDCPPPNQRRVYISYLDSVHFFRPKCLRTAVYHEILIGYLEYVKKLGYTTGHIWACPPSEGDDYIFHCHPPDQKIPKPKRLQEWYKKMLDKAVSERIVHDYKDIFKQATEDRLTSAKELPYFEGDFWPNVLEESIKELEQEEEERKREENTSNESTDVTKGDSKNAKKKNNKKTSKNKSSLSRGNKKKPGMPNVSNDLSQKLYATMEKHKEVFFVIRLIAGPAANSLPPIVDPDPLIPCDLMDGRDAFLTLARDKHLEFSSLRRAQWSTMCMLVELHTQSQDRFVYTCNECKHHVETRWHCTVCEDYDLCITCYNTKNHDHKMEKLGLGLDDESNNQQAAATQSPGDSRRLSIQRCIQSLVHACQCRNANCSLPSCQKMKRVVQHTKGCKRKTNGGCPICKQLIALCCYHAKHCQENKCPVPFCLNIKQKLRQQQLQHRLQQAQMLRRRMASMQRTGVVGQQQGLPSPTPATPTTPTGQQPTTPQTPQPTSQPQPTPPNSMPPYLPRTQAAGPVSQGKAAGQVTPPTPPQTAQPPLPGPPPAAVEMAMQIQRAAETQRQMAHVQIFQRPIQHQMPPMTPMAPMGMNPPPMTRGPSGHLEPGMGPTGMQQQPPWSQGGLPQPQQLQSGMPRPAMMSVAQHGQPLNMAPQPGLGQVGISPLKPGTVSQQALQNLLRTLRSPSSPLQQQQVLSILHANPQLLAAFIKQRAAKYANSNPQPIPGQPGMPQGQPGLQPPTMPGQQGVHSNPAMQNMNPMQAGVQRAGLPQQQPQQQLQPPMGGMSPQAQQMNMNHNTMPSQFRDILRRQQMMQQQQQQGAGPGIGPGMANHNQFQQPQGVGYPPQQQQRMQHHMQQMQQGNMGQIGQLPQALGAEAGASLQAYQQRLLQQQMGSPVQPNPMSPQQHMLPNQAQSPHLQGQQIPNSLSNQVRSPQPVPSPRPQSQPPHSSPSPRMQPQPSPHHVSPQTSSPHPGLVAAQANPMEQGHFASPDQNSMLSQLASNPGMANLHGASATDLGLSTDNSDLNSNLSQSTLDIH
UniProt Q92793, whole entry: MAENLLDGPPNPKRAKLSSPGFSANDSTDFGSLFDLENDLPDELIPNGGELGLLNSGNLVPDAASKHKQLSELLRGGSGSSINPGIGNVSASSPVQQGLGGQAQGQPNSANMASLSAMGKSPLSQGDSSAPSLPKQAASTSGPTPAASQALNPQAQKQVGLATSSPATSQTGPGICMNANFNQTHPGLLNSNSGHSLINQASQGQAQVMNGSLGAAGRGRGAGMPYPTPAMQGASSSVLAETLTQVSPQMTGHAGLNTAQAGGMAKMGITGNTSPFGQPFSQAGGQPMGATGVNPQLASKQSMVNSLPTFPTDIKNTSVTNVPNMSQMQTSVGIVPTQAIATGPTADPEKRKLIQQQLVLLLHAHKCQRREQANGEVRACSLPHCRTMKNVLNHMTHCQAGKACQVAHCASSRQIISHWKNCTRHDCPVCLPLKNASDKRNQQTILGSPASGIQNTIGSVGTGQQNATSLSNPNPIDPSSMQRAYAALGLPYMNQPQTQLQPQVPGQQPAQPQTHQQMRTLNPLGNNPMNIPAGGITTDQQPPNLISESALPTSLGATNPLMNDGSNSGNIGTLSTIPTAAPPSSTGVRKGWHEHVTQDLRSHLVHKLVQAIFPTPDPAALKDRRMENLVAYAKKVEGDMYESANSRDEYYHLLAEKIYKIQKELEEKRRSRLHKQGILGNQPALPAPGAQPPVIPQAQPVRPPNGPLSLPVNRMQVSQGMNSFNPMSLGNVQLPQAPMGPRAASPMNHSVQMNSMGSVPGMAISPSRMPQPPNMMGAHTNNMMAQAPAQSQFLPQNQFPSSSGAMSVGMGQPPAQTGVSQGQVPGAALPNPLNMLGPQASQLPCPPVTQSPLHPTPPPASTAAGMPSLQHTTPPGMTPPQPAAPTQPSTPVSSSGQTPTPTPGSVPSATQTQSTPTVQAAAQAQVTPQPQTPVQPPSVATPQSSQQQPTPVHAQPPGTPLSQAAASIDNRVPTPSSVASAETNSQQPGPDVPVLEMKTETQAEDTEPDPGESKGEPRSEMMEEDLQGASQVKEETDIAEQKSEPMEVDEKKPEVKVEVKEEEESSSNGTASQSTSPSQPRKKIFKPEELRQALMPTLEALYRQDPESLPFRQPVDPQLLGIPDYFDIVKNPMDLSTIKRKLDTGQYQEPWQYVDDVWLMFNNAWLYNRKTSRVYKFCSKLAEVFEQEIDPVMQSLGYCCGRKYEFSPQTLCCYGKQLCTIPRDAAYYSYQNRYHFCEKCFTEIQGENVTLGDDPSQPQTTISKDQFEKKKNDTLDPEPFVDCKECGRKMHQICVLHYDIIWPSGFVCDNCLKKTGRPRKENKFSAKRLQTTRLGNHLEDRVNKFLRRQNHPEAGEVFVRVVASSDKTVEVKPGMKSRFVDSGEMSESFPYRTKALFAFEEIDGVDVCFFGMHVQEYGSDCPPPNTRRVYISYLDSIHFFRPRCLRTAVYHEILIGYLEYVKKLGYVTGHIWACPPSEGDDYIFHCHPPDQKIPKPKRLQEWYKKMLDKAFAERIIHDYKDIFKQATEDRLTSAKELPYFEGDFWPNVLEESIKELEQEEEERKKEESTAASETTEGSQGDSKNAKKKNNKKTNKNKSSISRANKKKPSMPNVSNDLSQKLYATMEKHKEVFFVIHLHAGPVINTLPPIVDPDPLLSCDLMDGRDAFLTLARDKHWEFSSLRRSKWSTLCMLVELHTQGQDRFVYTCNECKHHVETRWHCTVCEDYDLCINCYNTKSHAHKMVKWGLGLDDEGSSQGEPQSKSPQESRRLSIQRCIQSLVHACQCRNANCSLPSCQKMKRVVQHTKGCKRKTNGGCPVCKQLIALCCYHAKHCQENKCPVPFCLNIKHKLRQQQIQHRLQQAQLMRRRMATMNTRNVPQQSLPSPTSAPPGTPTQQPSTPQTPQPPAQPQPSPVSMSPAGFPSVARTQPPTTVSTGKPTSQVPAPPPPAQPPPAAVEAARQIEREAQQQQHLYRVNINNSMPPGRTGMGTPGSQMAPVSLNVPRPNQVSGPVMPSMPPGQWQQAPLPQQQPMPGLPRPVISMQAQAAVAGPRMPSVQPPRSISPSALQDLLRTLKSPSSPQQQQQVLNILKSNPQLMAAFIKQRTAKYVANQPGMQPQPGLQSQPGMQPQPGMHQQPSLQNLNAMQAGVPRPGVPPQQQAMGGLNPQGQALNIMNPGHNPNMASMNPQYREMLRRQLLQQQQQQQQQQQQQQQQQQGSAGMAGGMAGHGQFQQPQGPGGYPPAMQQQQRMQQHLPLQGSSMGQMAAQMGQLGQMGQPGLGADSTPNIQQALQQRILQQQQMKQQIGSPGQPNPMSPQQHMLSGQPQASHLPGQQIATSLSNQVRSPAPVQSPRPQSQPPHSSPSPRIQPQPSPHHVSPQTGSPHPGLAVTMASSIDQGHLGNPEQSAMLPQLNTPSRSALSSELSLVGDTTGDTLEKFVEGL

Legend:
[1] = target: p300 (Homo sapiens, UniProt Q09472); assay: P300 degradation, HiBit technology in A549 P300 HiBit cells (2 h); conditions: for P300 A549 2 h HiBit DMax (%): 2 hrs post treatment; for DC50: read-out: P300 A549 2 h HiBit DC50, 2 hrs post treatment
Procedure: (§1) p300 and CBP degradation potency and Dmax were determined using in cell western (ICW) assay technology in H1299 cells or HiBit technology in A549 HiBit cells.
(§2) A549 P300 HiBit and A549 CBP HiBit cells were plated in separate 384-well, TC treated, white-opaque, flat-bottomed microplate. Cells were plated at a cell density of 0.2×10^4 cells per well in assay media comprised of F-12K, 10% heat inactivated FBS, and 1% penicillin/streptomycin. Assay microplates containing HiBit cells were placed in a 37° C., 5% CO2, tissue culture incubator and left to equilibrate overnight. The next day cells were treated with serial dilutions of test compound made up of 10 mM stock solutions in DMSO. 384-Well plates containing treated cells were then placed back into a 37° C., 5% CO2, tissue culture incubator. Assay microplates containing A549 P300 HiBit cells were incubated for 2 hrs post treatment before P300 destruction was assessed, while microplates containing A549 CBP HiBit cells were incubated for 24 hrs post treatment before CBP destruction was determined. On the day of each assay time point, microplates were removed from the tissue culture incubator and prepared HiBit Lytic detection buffer (Promega, cat #N3O40) was added to each plate. Plates were covered with aluminum foil and incubated for ten minutes at room temperature on an orbital shaker. After incubation, luminescent signal of each plate was measured using the Envision instrument (Perkin Elmer).

[2] = target: CBP (Homo sapiens, UniProt Q92793); assay: CBP degradation, HiBit technology in A549 CBP HiBit cells (24 h); conditions: for CBP A549 24 h HiBit DMax (%): 24 hrs post treatment; for DC50: read-out: CBP A549 24 h HiBit DC50, 24 hrs post treatment
Procedure: as §1, §2

Compound | P300 A549 2 h HiBit DMax (%) [1] | DC50 [1] [nM] | CBP A549 24 h HiBit DMax (%) [2] | DC50 [2] [nM]
Cc1cc2c(N3CCOc4cc(-c5ccc(C(=O)NCC#Cc6cc7c(C8CCC(=O)NC8=O)cccc7o6)nc5)ncc43)cc(C3CCOCC3)nc2n(C)c1=O (stereo not shown) | A (“A”: > 80%) | < 1 | E (“E”: < 20%) | > 1000
Cc1cc2c(N3CCCc4nc(-c5ccc(C(=O)NCC#Cc6cc7c([C@@H]8CCC(=O)NC8=O)cccc7o6)nc5)ncc43)nc(N3CCOCC3)cc2n(C)c1=O | B (“B”: 60-79%) | 10 to 99 | E (“E”: < 20%) | > 1000
Cc1cc2c(N3CCCc4nc(-c5ccc(C(=O)NCC#Cc6cc7c(C8CCC(=O)NC8=O)nccc7o6)nc5)ncc43)nc(N3CCOCC3)cc2n(C)c1=O (stereo not shown) | A (“A”: > 80%) | < 1 | D (“D”: 20-39%) | 10 to 99
Cc1cc2c(N3CCCc4nc(-c5ccc(C(=O)NCC#Cc6cc7c(C8CCC(=O)NC8=O)cccc7o6)nc5)ncc43)cc(C3CCOCC3)cc2n(C)c1=O (stereo not shown) | A (“A”: > 80%) | < 1 | E (“E”: < 20%) | > 1000
